{
  "source": "ChEMBL document CHEMBL5154811",
  "about": "“Discovery of SPH5030, a Selective, Potent, and Irreversible Tyrosine Kinase Inhibitor for HER2-Amplified and HER2-Mutant Cancer Treatment” (J Med Chem, 2022)",
  "key": {"Homo sapiens": {"organism": "Homo sapiens", "assay": "Selectivity ratio of IC50 for wild type human N-terminal GST tagged EGFR (669 to 1210 residues) expressed in Sf21 insect cells to IC50 for wild type human GST-tagged HER2 (676 to end residues) expressed in baculovirus infected Sf9 cells"}, "[1]": {"test_system": "Receptor tyrosine-protein kinase erbB-2 (Homo sapiens), P04626 [V777L]", "assay": "Potency index, ratio of neratinib IC50 to test compound IC50 for inhibition of HER2 V777L mutant (unknown origin) incubated for 120 mins in presence of 33P-ATP by P81 ion exchange cellulose chromatography"}, "[2]": {"test_system": "Receptor tyrosine-protein kinase erbB-2 (Homo sapiens), P04626 [D769H]", "assay": "Potency index, ratio of pyrotinib IC50 to test compound IC50 for inhibition of HER2 D769H mutant (unknown origin) incubated for 120 mins in presence of 33P-ATP by P81 ion exchange cellulose chromatography"}, "[3]": {"test_system": "Receptor tyrosine-protein kinase erbB-2 (Homo sapiens), P04626 [D769Y]", "assay": "Potency index, ratio of neratinib IC50 to test compound IC50 for inhibition of HER2 D769Y mutant (unknown origin) incubated for 120 mins in presence of 33P-ATP by P81 ion exchange cellulose chromatography"}, "[4]": {"test_system": "Receptor tyrosine-protein kinase erbB-2 (Homo sapiens), P04626 [R896C]", "assay": "Potency index, ratio of pyrotinib IC50 to test compound IC50 for inhibition of HER2 R896C mutant (unknown origin) incubated for 120 mins in presence of 33P-ATP by P81 ion exchange cellulose chromatography"}, "[5]": {"test_system": "Receptor tyrosine-protein kinase erbB-2 (Homo sapiens), P04626 [R896C]", "assay": "Potency index, ratio of neratinib IC50 to test compound IC50 for inhibition of HER2 R896C mutant (unknown origin) incubated for 120 mins in presence of 33P-ATP by P81 ion exchange cellulose chromatography"}, "[6]": {"test_system": "Receptor tyrosine-protein kinase erbB-2 (Homo sapiens), P04626 [V777L]", "assay": "Potency index, ratio of pyrotinib IC50 to test compound IC50 for inhibition of HER2 V777L mutant (unknown origin) incubated for 120 mins in presence of 33P-ATP by P81 ion exchange cellulose chromatography"}, "[7]": {"test_system": "Receptor tyrosine-protein kinase erbB-2 (Homo sapiens), P04626 [D769Y]", "assay": "Potency index, ratio of pyrotinib IC50 to test compound IC50 for inhibition of HER2 D769Y mutant (unknown origin) incubated for 120 mins in presence of 33P-ATP by P81 ion exchange cellulose chromatography"}, "[8]": {"test_system": "Receptor tyrosine-protein kinase erbB-2 (Homo sapiens), P04626 [D769H]", "assay": "Potency index, ratio of neratinib IC50 to test compound IC50 for inhibition of HER2 D769H mutant (unknown origin) incubated for 120 mins in presence of 33P-ATP by P81 ion exchange cellulose chromatography"}},
  "data": [
    {"smiles": "Cc1cc(Nc2c(C#N)cnc3ccc(NC(=O)/C=C/CN(C)C)cc23)ccc1Oc1cc2nncn2cn1", "values": [
      {"measurement": "Ratio IC50", "setting": "Homo sapiens", "result": 0.33}
    ]},
    {"smiles": "Cc1cc(Nc2ncnc3cc(O)c(NC(=O)/C=C/[C@H]4CCCN4C)cc23)ccc1Oc1ccn2cnnc2c1", "values": [
      {"measurement": "Ratio IC50", "setting": "Homo sapiens", "result": 3.6}
    ]},
    {"smiles": "Cc1cc(Nc2ncnc3cc(O)c(NC(=O)/C=C/[C@H]4CCCN4C)cc23)ccc1Oc1cnn2cnnc2c1", "values": [
      {"measurement": "Ratio IC50", "setting": "Homo sapiens", "result": 0.74}
    ]},
    {"smiles": "Cc1cc(Nc2ncnc3ccc(NC(=O)/C=C/[C@H]4CCCN4C)cc23)ccc1Oc1cc2nncn2cn1", "values": [
      {"measurement": "Ratio IC50", "setting": "Homo sapiens", "result": 0.85}
    ]},
    {"smiles": "Cc1cc(Nc2ncnc3cc(O)c(NC(=O)/C=C/[C@H]4CCCN4C)cc23)ccc1Oc1ccn2ncnc2c1", "values": [
      {"measurement": "Ratio IC50", "setting": "Homo sapiens", "result": 1.95}
    ]},
    {"smiles": "CCOc1cc2ncnc(Nc3ccc(Oc4cc5nncn5cn4)c(C)c3)c2cc1NC(=O)/C(F)=C\\[C@@H]1CCCN1C", "values": [
      {"measurement": "Ratio IC50", "setting": "Homo sapiens", "result": 7.05}
    ]},
    {"smiles": "Cc1cc(Nc2ncnc3cc(O)c(NC(=O)/C=C/[C@H]4CCCN4C)cc23)ccc1Oc1cc2nccn2cn1", "values": [
      {"measurement": "Ratio IC50", "setting": "Homo sapiens", "result": 1.05}
    ]},
    {"smiles": "CCOc1cc2ncnc(Nc3ccc(Oc4cc5nncn5cn4)c(C)c3)c2cc1NC(=O)/C=C/[C@H]1CCCN1C", "values": [
      {"measurement": "Ratio IC50", "setting": "Homo sapiens", "result": 0.81}
    ]},
    {"smiles": "Cc1cc(Nc2ncnc3cc(O)c(NC(=O)/C=C/[C@H]4CCCN4C)cc23)ccc1Oc1ccc2nccn2c1", "values": [
      {"measurement": "Ratio IC50", "setting": "Homo sapiens", "result": 0.36}
    ]},
    {"smiles": "Cc1cc(Nc2ncnc3cc(O)c(NC(=O)/C=C/[C@H]4CCCN4C)cc23)ccc1Oc1cnc2ccnn2c1", "values": [
      {"measurement": "Ratio IC50", "setting": "Homo sapiens", "result": 0.43}
    ]},
    {"smiles": "Cc1cc(Nc2c(C#N)cnc3ccc(NC(=O)/C=C/[C@H]4CCCN4C)cc23)ccc1Oc1cc2nncn2cn1", "values": [
      {"measurement": "Ratio IC50", "setting": "Homo sapiens", "result": 0.29}
    ]},
    {"smiles": "CCOc1cc2ncnc(Nc3ccc(Oc4cc5nncn5cn4)c(C)c3)c2cc1NC(=O)/C(F)=C/[C@@H]1CCCN1C", "values": [
      {"measurement": "Ratio IC50", "setting": "Homo sapiens", "result": 9.5}
    ]},
    {"smiles": "COCC(=O)NC/C=C/c1ccc2ncnc(Nc3ccc(Oc4cc5nncn5cn4)c(C)c3)c2c1", "values": [
      {"measurement": "Ratio IC50", "setting": "Homo sapiens", "result": 43.3}
    ]},
    {"smiles": "C=CC(=O)Nc1cc2c(Nc3ccc(Oc4cc5nncn5cn4)c(C)c3)ncnc2cc1OCC", "values": [
      {"measurement": "Ratio IC50", "setting": "Homo sapiens", "result": 0.76}
    ]},
    {"smiles": "CCOc1cc2ncnc(Nc3ccc(Oc4cc5nncn5cn4)c(C)c3)c2cc1NC(=O)/C(F)=C\\[C@H]1CCCN1C", "values": [
      {"measurement": "Ratio IC50", "setting": "Homo sapiens", "result": 11.8}
    ]},
    {"smiles": "Cc1cc(Nc2ncnc3ccc(NC(=O)/C=C/CN(C)C)cc23)ccc1Oc1cc2nncn2cn1", "values": [
      {"measurement": "Ratio IC50", "setting": "Homo sapiens", "result": 0.75}
    ]},
    {"smiles": "CCOc1cc2ncnc(Nc3ccc(Oc4cc5nncn5cn4)c(C)c3)c2cc1NC(=O)/C(F)=C/[C@H]1CCCN1C", "values": [
      {"measurement": "Ratio IC50", "setting": "[1]", "result": 3.1},
      {"measurement": "Ratio IC50", "setting": "[2]", "result": 4.3},
      {"measurement": "Ratio IC50", "setting": "[3]", "result": 3.1},
      {"measurement": "Ratio IC50", "setting": "[4]", "result": 4.3},
      {"measurement": "Ratio IC50", "setting": "Homo sapiens", "result": 2.32},
      {"measurement": "Ratio IC50", "setting": "[5]", "result": 3.1},
      {"measurement": "Ratio IC50", "setting": "[6]", "result": 4.3},
      {"measurement": "Ratio IC50", "setting": "[7]", "result": 4.3},
      {"measurement": "Ratio IC50", "setting": "[8]", "result": 3.1}
    ]},
    {"smiles": "Cc1cc(Nc2ncnc3cc(O)c(NC(=O)/C=C/[C@H]4CCCN4C)cc23)ccc1Oc1ccn2ccnc2c1", "values": [
      {"measurement": "Ratio IC50", "setting": "Homo sapiens", "result": 1.36}
    ]},
    {"smiles": "C=C(F)C(=O)Nc1cc2c(Nc3ccc(Oc4cc5nncn5cn4)c(C)c3)ncnc2cc1OCC", "values": [
      {"measurement": "Ratio IC50", "setting": "Homo sapiens", "result": 2.73}
    ]}
  ]
}
